# Test results: patent US5972914A, “Remedies for liver diseases” (Meiji Milk Products Co., Ltd., priority 1998, dated 1999)
# Where “and” joins values, the source holds several entries; their conditions need not be identical. Equal entries are not always repeated. Structures can show the parent of a compound that is named as a salt.
# Tests used:
# [1] = system: liver regeneration after partial hepatectomy; test: Liver regeneration after 70% hepatectomy, BrdU labeling index; format: in vivo, Sprague-Dawley rats; details: EA-HCl 10 mg/rat
# [2] = system: liver of healthy rats; test: BrdU labeling index of liver in healthy rats; format: in vivo, Sprague-Dawley rats; details: EA-HCl 10 mg/rat
compound,measurement,setting,value
"NCCO [EA-HCl, monoethanolamine-HCl]",BrdU labeling index,"[1]; individual rats, 70% hepatectomy",38.5% and 51.8% and 45.2% and 45.1% and 37.5% and 41.6% and 47.4%
same,"BrdU labeling index, Mean ± SD","[1]; n = 7, 70% hepatectomy",43.9 ± 5.1%
same,BrdU labeling index,[2]; individual healthy rats,1.0% and 1.1% and 1.5%
same,"BrdU labeling index, Mean ± SD","[2]; n = 3, healthy rats",1.2 ± 0.3%
